Experimental data: article PMC1525162 (BMC Pharmacology, 2006)

Experiments:
[1] = system: cerebral and coronary vessels; conditions: cited from earlier work
Text: Conversely, vasodilatation by CGRP released in the peripheral vasculature might be of considerable importance to patients suffering from hypertension and/or heart di ...

[2] = system: HEK293T-RAMP1 cells without CLR; test: cAMP generation, non-transfected or empty-vector HEK293T-RAMP1 cells; assay type: cell-based; conditions: 10 nM CGRP, 30 min, 37°C, data not shown
[3] = system: wild type and L24A, L34A, L24A,L34A CLR-RAMP1 (HEK293T-RAMP1 cells); test: cAMP generation, wild type and leucine mutant CLRs compared; conditions: L24A,L34A vs wild type CLR

**Q.** What does the source list for `CC(C)C[C@H](NC(=O)CNC(=O)[C@H](C)NC(=O)[C@H](CC(C)C)NC(=O)[C@H](CCCNC(=N)N)NC(=O)[C@H](Cc1c[nH]cn1)NC(=O)[C@@H](NC(=O)[C@@H](NC(=O)[C@@H]1CSSC[C@H](NC(=O)[C@H](C)N)C(=O)N[C@@H](CC(=O)O)C(=O)N[C@@H]([C@@H](C)O)C(=O)N[C@@H](C)C(=O)N[C@@H]([C@@H](C)O)C(=O)N1)C(C)C)[C@@H](C)O)C(=O)N[C@@H](CC(C)C)C(=O)N[C@@H](CO)C(=O)N[C@@H](CCCNC(=N)N)C(=O)N[C@@H](CO)C(=O)NCC(=O)NCC(=O)N[C@H](C(=O)N[C@H](C(=O)N[C@@H](CCCCN)C(=O)N[C@@H](CC(N)=O)C(=O)N[C@@H](CC(N)=O)C(=O)N[C@@H](Cc1ccccc1)C(=O)N[C@H](C(=O)N1CCC[C@H]1C(=O)N[C@H](C(=O)N[C@@H](CC(N)=O)C(=O)N[C@H](C(=O)NCC(=O)N[C@@H](CO)C(=O)N[C@@H](CCCCN)C(=O)N[C@@H](C)C(=O)N[C@@H](Cc1ccccc1)C(N)=O)C(C)C)[C@@H](C)O)C(C)C)C(C)C)C(C)C` [CGRP, Calcitonin gene-related peptide]?
**A.** vasodilation [1]: potent, efficacious and long-lasting dilation; cAMP production without CLR [2]: no production of cAMP; cAMP potency at leucine mutants compared with wild type [3]: not significantly different; also recorded: no different

Entries after “also recorded” stand apart in the source; their conditions may differ.
